Chains of the proteins cited; added tags and fusions are not shown. Lines headed by an entry give the natural chain unless they say otherwise; changes in a name come on top.
UniProt Q13547, whole entry: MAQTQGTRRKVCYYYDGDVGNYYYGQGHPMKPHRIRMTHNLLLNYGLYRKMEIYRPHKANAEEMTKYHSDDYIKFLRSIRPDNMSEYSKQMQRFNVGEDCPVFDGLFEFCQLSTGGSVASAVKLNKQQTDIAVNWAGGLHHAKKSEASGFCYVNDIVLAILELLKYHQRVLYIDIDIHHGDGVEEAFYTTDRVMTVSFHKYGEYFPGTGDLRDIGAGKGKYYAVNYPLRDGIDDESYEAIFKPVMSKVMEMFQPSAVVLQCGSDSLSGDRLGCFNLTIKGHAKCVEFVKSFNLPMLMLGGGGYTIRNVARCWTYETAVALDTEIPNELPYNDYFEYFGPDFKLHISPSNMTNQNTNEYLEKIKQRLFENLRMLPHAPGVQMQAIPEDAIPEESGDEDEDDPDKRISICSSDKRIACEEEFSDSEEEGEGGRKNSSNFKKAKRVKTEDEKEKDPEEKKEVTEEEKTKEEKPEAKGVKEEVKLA
UniProt O15379: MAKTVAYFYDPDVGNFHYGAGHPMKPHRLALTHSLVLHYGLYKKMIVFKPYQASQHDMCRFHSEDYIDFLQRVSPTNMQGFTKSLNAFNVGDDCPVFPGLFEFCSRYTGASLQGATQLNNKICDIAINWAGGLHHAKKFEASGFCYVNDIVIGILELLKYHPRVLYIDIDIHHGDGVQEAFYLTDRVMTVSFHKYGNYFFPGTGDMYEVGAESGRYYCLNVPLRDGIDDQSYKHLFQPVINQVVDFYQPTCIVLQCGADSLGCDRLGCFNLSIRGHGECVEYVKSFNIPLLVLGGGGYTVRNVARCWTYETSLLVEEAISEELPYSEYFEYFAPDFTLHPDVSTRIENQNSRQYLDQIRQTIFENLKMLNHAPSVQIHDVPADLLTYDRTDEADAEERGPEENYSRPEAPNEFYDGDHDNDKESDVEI
UniProt Q92769, whole entry: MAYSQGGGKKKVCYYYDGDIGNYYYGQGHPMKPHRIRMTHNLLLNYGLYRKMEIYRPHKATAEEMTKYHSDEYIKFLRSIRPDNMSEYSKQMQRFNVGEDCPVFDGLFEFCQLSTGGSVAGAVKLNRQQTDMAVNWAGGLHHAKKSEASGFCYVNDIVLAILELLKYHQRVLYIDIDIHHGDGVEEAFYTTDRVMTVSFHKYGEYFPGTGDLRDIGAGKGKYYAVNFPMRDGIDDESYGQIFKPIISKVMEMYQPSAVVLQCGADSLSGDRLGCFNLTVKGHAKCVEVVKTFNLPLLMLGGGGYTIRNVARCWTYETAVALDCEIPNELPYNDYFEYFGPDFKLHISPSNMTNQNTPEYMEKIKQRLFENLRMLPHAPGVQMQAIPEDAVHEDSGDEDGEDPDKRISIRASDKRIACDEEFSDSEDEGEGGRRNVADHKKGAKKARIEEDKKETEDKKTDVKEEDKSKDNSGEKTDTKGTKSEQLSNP

According to ChEMBL document CHEMBL3593208 (Bioorg Med Chem, 2015):

Columns and labels:
Histone deacetylase 1 = Histone deacetylase 1 (Homo sapiens, UniProt Q13547); assay: Inhibition of recombinant full-length HDAC1 (unknown origin) using MAZ1600/MAZ1675 as substrate assessed as release of 7 amino-4-methylcoumarin measured every 5 mins by fluorescence assay
Method in brief: (§1)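 AMC release after deacetylase plus trypsin action read every 5 min. First derivative in the linear range used. Replicates normalised to DMSO controls (<0.5%). IC50 by logistic regression, unconstrained max/min.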

Histone deacetylase 3 = Histone deacetylase 3 (Homo sapiens, UniProt O15379); assay: Inhibition of recombinant full-length HDAC3 (unknown origin) using MAZ1600/MAZ1675 as substrate assessed as release of 7 amino-4-methylcoumarin measured every 5 mins by fluorescence assay
Histone deacetylase 2 = Histone deacetylase 2 (Homo sapiens, UniProt Q92769); assay: Inhibition of recombinant full-length HDAC2 (unknown origin) using MAZ1600/MAZ1675 as substrate assessed as release of 7 amino-4-methylcoumarin measured every 5 mins by fluorescence assay; method in brief: as §1
[1] = target: T1, Protein deacetylase HDAC6 (Homo sapiens, UniProt Q9UBN7); assay: Inhibition of recombinant full-length HDAC6 (unknown origin) using MAZ1600/MAZ1675 as substrate assessed as release of 7 amino-4-methylcoumarin measured every 5 mins by fluorescence assay
T1 sequence (Q9UBN7 whole entry): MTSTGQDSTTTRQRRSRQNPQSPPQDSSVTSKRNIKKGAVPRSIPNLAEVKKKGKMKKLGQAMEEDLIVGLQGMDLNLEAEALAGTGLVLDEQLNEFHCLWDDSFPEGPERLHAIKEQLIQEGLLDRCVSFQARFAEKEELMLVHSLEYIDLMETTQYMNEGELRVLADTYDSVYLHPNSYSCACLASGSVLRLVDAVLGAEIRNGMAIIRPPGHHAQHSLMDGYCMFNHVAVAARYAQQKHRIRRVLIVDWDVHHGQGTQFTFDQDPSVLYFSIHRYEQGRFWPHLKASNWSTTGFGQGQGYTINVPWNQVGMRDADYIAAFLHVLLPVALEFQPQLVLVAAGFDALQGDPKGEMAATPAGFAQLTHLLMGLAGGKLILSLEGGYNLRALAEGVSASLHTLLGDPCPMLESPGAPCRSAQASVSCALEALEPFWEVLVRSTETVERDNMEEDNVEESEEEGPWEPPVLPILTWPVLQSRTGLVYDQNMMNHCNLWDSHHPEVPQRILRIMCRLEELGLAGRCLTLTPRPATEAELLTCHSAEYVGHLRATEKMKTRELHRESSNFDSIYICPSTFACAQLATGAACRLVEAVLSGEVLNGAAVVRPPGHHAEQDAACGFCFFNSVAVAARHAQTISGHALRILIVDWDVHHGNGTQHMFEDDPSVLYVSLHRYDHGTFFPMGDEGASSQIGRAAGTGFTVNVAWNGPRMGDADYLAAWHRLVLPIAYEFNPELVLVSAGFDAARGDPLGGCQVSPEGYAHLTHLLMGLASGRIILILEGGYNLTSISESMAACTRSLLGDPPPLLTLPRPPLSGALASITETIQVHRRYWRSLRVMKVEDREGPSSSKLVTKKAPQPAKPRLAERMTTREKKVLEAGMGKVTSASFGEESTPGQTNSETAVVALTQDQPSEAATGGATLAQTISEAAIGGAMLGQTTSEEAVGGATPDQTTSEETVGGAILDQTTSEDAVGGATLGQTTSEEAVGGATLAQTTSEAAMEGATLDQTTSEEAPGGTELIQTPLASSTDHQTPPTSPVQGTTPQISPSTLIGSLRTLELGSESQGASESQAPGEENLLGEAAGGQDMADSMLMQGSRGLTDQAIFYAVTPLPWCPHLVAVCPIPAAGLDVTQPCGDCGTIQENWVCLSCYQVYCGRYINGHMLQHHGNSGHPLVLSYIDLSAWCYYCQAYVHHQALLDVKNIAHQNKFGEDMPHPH
Method in brief: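 AMC release after deacetylase/trypsin action read every 5 min. Linear-range first derivative normalised to DMSO controls (<0.5%). IC50 by unconstrained logistic regression.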

CC(C)[C@@H]1NC(=O)[C@]2(C)CSC(=N2)c2csc(n2)CNC(=O)C[C@@H](/C=C/CCS)NC1=O
IC50 (Histone deacetylase 1): 1.95 nM
IC50 (Histone deacetylase 3): 2.59 nM
IC50 (Histone deacetylase 2): 3.38 nM
IC50 [1]: 102 nM
